Measurements as given in patent US6667034B2, “METHODS FOR REGULATING THE SPECIFIC LINEAGES OF CELLS PRODUCED IN A HUMAN HEMATOPOIETIC CELL CULTURE, METHODS FOR ASSAYING THE EFFECT OF SUBSTANCES ON LINEAGE-SPECIFIC CELL PRODUCTION, AND CELL COMPOSITIONS PRODUCED BY THESE CULTURES” (The Regents of the University of Michigan, priority 1989, dated 2003).

Key:
Type in all cases: cell-based
Human bone marrow cells [1] = experiment: Morphologic analysis of nonadherent cells from HGF supplemented LTBMCs (Example 2); settings: at week 18
Protocol: Methycellulose and morphologic assays: Once every other week, the non-adherent cells removed for cell counts were plated in methylcellulose in the presence of erythropoietien, GM-CSF, and IL-3, and the Granulocyte Macrophage-Colony Forming Units (CFU-GM) were enumerated. Aliquots of removed cells were cytocentrifuged, stained with Wright-Giemsa, and differential cell counts were performed.
Hematopoietic growth factors (HGH): Due to the frequent culture supplementation via rapid medium exchange, hematopoietic growth factors were added daily to the medium at approximately 1/20 of the concentrations found to promote maximal colony formation in clonal assays. […]
LTBMC conditions: The cultures were incubated at 37° C. in a humidified 5% CO2/95% air atmosphere and perfused (medium exchanged) at a rate of 50% daily medium exchange. […] After the first week in culture, 50% of the total nonadherent cells were removed from the cultures on a biweekly basis during the medium exchange, mononucleated cells counted, and fresh medium returned to the wells. The remaining five days per week when the cells were not counted, 50% of the medium was removed from each of the culture wells and replaced with fresh medium, the removed medium was centrifuged, the medium decanted from the cell pellet, and the cells returned to their original wells.

Human bone marrow cells [2] = experiment: Cumulative number of progenitor cells removed from rapidly perfused HGF supplemented LTBMCs (Example 5, Table 5)
Protocol: (§1) Hematopoietic progenitor cell assay: Nonadherent hematopoietic cells removed from culture were counted and plated at 1·10^5 cells/ml or fewer cells in methylcellulose. […] The cells were plated in 24 well plates at 0.25 ml/well and incubated at 37° C. for 14 days. The colonies were then counted under an inverted microscope and colonies greater than 50 cells were scored as GM-colony forming units (CFU-GM), erythroid burst-forming unit (BFU-E), or granulocyte erythroid megakaryocyte macrophage-colony forming unit (CFU-GEMM). Cells, hematopoietic progenitor cell assays, LTBMCs, and statistical analyses were as in Example 1.

Human bone marrow cells [3] = experiment: Population balance: cumulative production of CFU-GM removed and differentiated in HGF supplemented LTBMCs (Example 5, Table 7)
Text: (§2) Production of Progenitor Cells from Stem Cells. Although the most primitive hematopoietic cells that can be directly assayed are the progenitor cells; CFU-GEMM, CFU-GM, and BFU-E, the presence and activity or earlier stem cells can be inferred by the continued production of progenitor cells. Thus, progenitor cell production is an indirect measure of primitive stem cell activity. One can assay stem cells, therefore, by analyzing the kinetics of the progenitor cell pool. The four process rates that determine the progenitor cell pool size are: V1: The rate of production of progenitor cells by more undifferentiated stem cells; V2: The rate of loss of progenitor cells through the act of sampling of nonadherent cells from the culture; V3: The rate of loss of progenitor cells by their differentiation to mature cells of a particular lineage; V4: The rate of death of progenitor cells. The initial number, C0, of each progenitor cell species can be determined by assay at culture initiation. The question that we wish to answer is; Are stem cells being stimulated to produced progenitor cells—i.e. is V1 greater than zero? Cell death, V4, cannot be assessed. V2 however, can be measured by assaying the nonadherent cells removed from culture, and V3 can be estimated from nonadherent cell production data. A conservative estimate of the rate of progenitor cell differentiation, V3, can be determined by assuming that each progenitor cell has 10 divisions remaining to become a terminally differentiated cell. Therefore, each progenitor cell is equivalent to 2^10 (1024) mature cells. From the total number of mature cells produced of a specific lineage, the number of progenitor cells (BFU-E and CFU-GM) that differentiated can be back-calculated. Therefore, if the removal and differentiation of progenitor cells (V2+V3) exceeds the numbers of progenitor cells inoculated, Co, then progenitor cells must have been produced, and V1 is greater than zero.

Human bone marrow cells [4] = experiment: Cumulative cell production by cell lineage in growth factor supplemented LTBMCs over the first 6.5 weeks (Example 5, Table 4); settings: first 6.5 weeks of culture
Text: Cells, hematopoietic progenitor cell assays, LTBMCs, and statistical analyses were as in Example 1.

Human bone marrow cells [5] = experiment: Nonadherent cell production in rapidly exchanged growth factor supplemented LTBMCs (Example 2); settings: throughout the 18 weeks of culture; 50% daily medium exchange; IL-3 1 ng/ml, Epo 0.1 U/ml
Human bone marrow cells [6] = experiment: Hematopoietic progenitor cell assay in methylcellulose (CFU-GM, BFU-E, CFU-GEMM) of nonadherent cells from HGF supplemented LTBMCs (Example 2); settings: single growth factor alone
Protocol: as §1, with “(CFU-GEMM).” for “(CFU-GEMM). Cells, hematopoietic progenitor cell assays, LTBMCs, and statistical analyses were as in Example 1.”

Human bone marrow cells [7] = experiment: Population balance: cumulative production of BFU-E removed and differentiated in HGF supplemented LTBMCs (Example 5, Table 6)
Text: as §2

[8] = cumulative, rapidly perfused LTBMCs
[9] = rapidly perfused HGF supplemented LTBMCs
[10] = back-calculated assuming each progenitor cell is equivalent to 2^10 (1024) mature cells
[11] = IL-3 1 ng/ml, GM-CSF 1 ng/ml, Epo 0.1 U/ml, IL-6 10 U/ml, G-CSF 0.1 ng/ml

B1: IL-3: hematopoietic growth factor (cytokine) added daily to the medium at 1 ng/ml (protein, UniProt P08700 20-152, looked up)
Interleukin-3: APMTQTTPLKTSWVNCSNMIDEIITHLKQPPLPLLDFNNLNGEDQDILMENNLRRPNLEAFNRAVKSLQNASAIESILKNLLPCLPLATAAPTRHPIHIKDGDWNEFRRKLTFYLKTLENAQAQQTTLSLAIF
percentage of nonadherent cells being late granulocytes (LG) (Human bone marrow cells [1]): about 20% | increase in the total number of CFU-GEMM removed from culture (Human bone marrow cells [2]; [8]): 1.8 fold | effect on total CFU-GM (Human bone marrow cells [2]; individual growth factor): only a slight increase | cumulative number of progenitor cells removed: BFU-E (Human bone marrow cells [2]; [9]): 1900 | cumulative number of progenitor cells removed: CFU-GEMM (Human bone marrow cells [2]; [9]): 90 | cumulative number of progenitor cells removed: CFU-GM (Human bone marrow cells [2]; [9]): 2100 | Estimated number of CFU-GM that differentiated (V3) (Human bone marrow cells [3]; [10]): 9000 | Number of GM cells removed (×10^4) (V3) (Human bone marrow cells [3]; [8]): 9.0 ×10^4 | Number of CFU-GM removed (plated) (V2) (Human bone marrow cells [3]; every fourth biweekly sampling assayed, others by linear interpolation, inoculum 2500 CFU-GM): 2100 | Total number of CFU-GM (V3) (Human bone marrow cells [3]; removed plus differentiated): 11,100 | Cumulative cell production: Early Granulocytes (EG) (Human bone marrow cells [4]; [11]): 3.0 ×10^6 cells per culture | Cumulative cell production: Erythroid (E) (Human bone marrow cells [4]; [11]): 0.14 ×10^6 cells per culture | Cumulative cell production: Late Granulocytes (LG) (Human bone marrow cells [4]; [11]): 3.1 ×10^6 cells per culture | Cumulative cell production: Macrophages (Mo) (Human bone marrow cells [4]; [11]): 2.9 ×10^6 cells per culture | ratio (LG/EG) (Human bone marrow cells [4]; late to early granulocytes): 1 | average increase in nonadherent cell production over controls (Human bone marrow cells [5]): 175% | effect on BFU-E production (Human bone marrow cells [6]): mild short-lived stimulation of BFU-E production in weeks 3-5 | Estimated number of BFU-E that differentiated (V3) (Human bone marrow cells [7]; [10]): 100 | Number of erythroid cells removed (×10^4) (V3) (Human bone marrow cells [7]; [8]): 0.1 ×10^4 | Number of BFU-E removed (plated) (V3) (Human bone marrow cells [7]; every fourth biweekly sampling assayed, others by linear interpolation, inoculum 2900 BFU-E): 1900 | Total number of BFU-E (V3) (Human bone marrow cells [7]; removed plus differentiated, inoculum 2900): 2000
